# Permeability data for macrocyclic peptides

Collected by the curators of CycPeptMPDB (Li et al. 2023) from Townsend et al. 2020, doi:10.26434/chemrxiv.13335941.v1.

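Lipid, pH, incubation time, direction and concentration are not recorded in the data file. The list need not hold all peptides of the study. Peptides that the database sets to -10, its floor, are left out.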

PAMPA measures passive passage through an artificial lipid membrane.
Values are log10 P with P in cm/s, so -5 is more permeable than -7.

For CC(C)C[C@@H]1C(=O)N2CCC[C@H]2C(=O)N(C)[C@@H](CC(C)C)C(=O)N[C@@H](Cc2ccccc2)C(=O)N[C@H](C)C(=O)N[C@H](CC(C)C)C(=O)N1C the data give PAMPA -5.92 (log10 cm/s).
For CC(C)C[C@H]1C(=O)N[C@@H](Cc2ccccc2)CC(=O)N2CCC[C@@H]2C(=O)N(Cc2ccccc2)CC(=O)N[C@@H](Cc2ccccc2)C(=O)N2CCC[C@@H]2C(=O)N(C)[C@H](C)C(=O)N1C the data give PAMPA -7.18 (log10 cm/s).
For CC(C)C[C@@H]1NC(=O)[C@@H](CC(C)C)NC(=O)[C@H](C)N(C)C(=O)[C@@H]2CCCN2C(=O)[C@H](Cc2ccccc2)NC(=O)CN(Cc2ccccc2)C(=O)[C@@H]2CCCN2C1=O the data give PAMPA -6.29 (log10 cm/s).
For CC(C)C[C@H]1NC(=O)[C@H](CC(C)C)N(C)C(=O)[C@H](C)NC(=O)[C@H](Cc2ccccc2)NC(=O)CN(Cc2ccccc2)C(=O)[C@H]2CCCN2C1=O the data give PAMPA -5.76 (log10 cm/s).
For CCCN1CC(=O)N(C)[C@H](CC(C)C)C(=O)N[C@@H](CC(C)C)C(=O)N2CCC[C@H]2C(=O)N(C)[C@H](CC(C)C)C(=O)N[C@@H](Cc2ccccc2)C(=O)N2CCC[C@@H]2C1=O the data give PAMPA -5.07 (log10 cm/s).
For CCCN1CC(=O)N(C)[C@@H](CC(C)C)C(=O)N[C@@H](CC(C)C)C(=O)N2CCC[C@@H]2C(=O)N(C)[C@@H](CC(C)C)C(=O)N[C@@H](Cc2ccccc2)C1=O the data give PAMPA -4.96 (log10 cm/s).
For CC(C)C[C@H]1NC(=O)[C@H]2CCCN2C(=O)[C@H](CC(C)C)N(C)C(=O)[C@@H](CC(C)C)NC(=O)C[C@H](Cc2ccccc2)NC(=O)[C@H](Cc2ccccc2)NC1=O the data give PAMPA -5.60 (log10 cm/s).
For CC(C)C[C@H]1NC(=O)[C@@H](C)N(C)C(=O)[C@H]2CCCN2C(=O)[C@H](Cc2ccccc2)NC(=O)CN(Cc2ccccc2)C(=O)[C@@H]2CCCN2C(=O)[C@H](CC(C)C)N(C)C1=O the data give PAMPA -5.57 (log10 cm/s).
For CC(C)C[C@@H]1NC(=O)[C@@H]2CCCN2C(=O)[C@@H](CC(C)C)NC(=O)[C@@H](CC(C)C)N(C)C(=O)[C@H](C)N(C)C(=O)[C@H](Cc2ccccc2)NC1=O the data give PAMPA -6.01 (log10 cm/s).
For CCCN1CC(=O)N[C@@H](CC(C)C)C(=O)N(C)[C@H](CC(C)C)C(=O)N2CCC[C@@H]2C(=O)N[C@@H](CC(C)C)C(=O)N[C@@H](Cc2ccccc2)C(=O)N2CCC[C@@H]2C1=O the data give PAMPA -5.73 (log10 cm/s).
For CC(C)C[C@@H]1C(=O)N[C@H](CC(C)C)C(=O)N2CCC[C@H]2C(=O)N(C)[C@@H](CC(C)C)C(=O)N[C@@H](Cc2ccccc2)C(=O)N2CCC[C@@H]2C(=O)N[C@@H](Cc2ccccc2)CC(=O)N1C the data give PAMPA -5.44 (log10 cm/s).
For CC(C)C[C@@H]1C(=O)N[C@@H](Cc2ccccc2)C(=O)N2CCC[C@H]2C(=O)N[C@@H](Cc2ccccc2)CC(=O)N[C@H](CC(C)C)C(=O)N(C)[C@H](CC(C)C)C(=O)N2CCC[C@@H]2C(=O)N1C the data give PAMPA -5.33 (log10 cm/s).

The 2 highest values of PAMPA among the entries above:

The entry for CCCN1CC(=O)N(C)[C@@H](CC(C)C)C(=O)N[C@@H](CC(C)C)C(=O)N2CCC[C@@H]2C(=O)N(C)[C@@H](CC(C)C)C(=O)N[C@@H](Cc2ccccc2)C1=O lists PAMPA -4.96 (log10 cm/s).
The entry for CCCN1CC(=O)N(C)[C@H](CC(C)C)C(=O)N[C@@H](CC(C)C)C(=O)N2CCC[C@H]2C(=O)N(C)[C@H](CC(C)C)C(=O)N[C@@H](Cc2ccccc2)C(=O)N2CCC[C@@H]2C1=O lists PAMPA -5.07 (log10 cm/s).